This note sets out measurements from the supplement of paper PMC5998384.

Data set [1] relates to HeLa Kyoto. Briefly: solubility in G1/S (NP-40 vs SDS abundance) (log2 ratio); higher = more soluble. The settings on record: cell cycle stage: G1/S.
Data set [2] deals with HeLa Kyoto. The experiment in a line: melting temperature (median over replicates), in situ; higher = more thermally stable.
The subject of data set [3] is HeLa Kyoto. The experiment in a line: thermal stability score vs G1/S (z-score of summed log2 fold changes over temperatures); higher = more thermally stable than in G1/S.
The subject of data set [4] is HeLa Kyoto. The experiment in a line: solubility change mitosis vs G1/S (difference of NP-40 vs SDS log2 ratios) (log2 ratio difference); higher = more soluble in mitosis.
Where [5] appears, read: cell cycle stage: early G1 (4.5 h after nocodazole release).
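For melting temperature (median over replicates), in situ in this document: HeLa Kyoto cells synchronized by double thymidine or nocodazole block, proteins quantified by TMT10plex mass spectrometry, three independent biological replicates.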
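For solubility change mitosis vs G1/S (difference of NP-40 vs SDS log2 ratios) in this document: synchronized HeLa Kyoto cells (double thymidine block for G1/S, nocodazole release for mitosis), protein amounts in NP-40 versus SDS lysates quantified by mass spectrometry, three biological replicates.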
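For solubility in G1/S (NP-40 vs SDS abundance) in this document: HeLa Kyoto cells arrested at G1/S by double thymidine block, proteins quantified by TMT10plex mass spectrometry in mild NP-40 versus SDS extracts, three biological replicates.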
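For thermal stability score vs G1/S (z-score of summed log2 fold changes over temperatures) in this document: synchronized HeLa Kyoto cells, proteins quantified by TMT10plex mass spectrometry, three biological replicates, mitosis taken 0.5 h after nocodazole release, G1/S directly after double thymidine block.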

In the case of “MKETDREAVATAVQRVAGMLQRPDQLDKVEQYRRREARKKASVEARLKAAIQSQLDGVRTGLSQLHNALNDVKDIQQSLADVSKDWRQSINTIESLKDVKDAVVQHSQLAAAVENLKNIFSVPEIVRETQDLIEQGALLQAHRKLMDLECSRDGLMYEQYRMDSGNTRDMTLIHGYFGSTQGLSDELAKQLWMVLQRSLVTVRRDPTLLVSVVRIIEREEKIDRRILDRKKQTGFVPPGRPKNWKEKMFTILERTVTTRIEGTQADTRESDKMWLVRHLEIIRKYVLDDLIVAKNLMVQCFPPHYEIFKNLLNMYHQALSTRMQDLASEDLEANEIVSLLTWVLNTYTSTEMMRNVELAPEVDVGTLEPLLSPHVVSELLDTYMSTLTSNIIAWLRKALETDKKDWVKETEPEADQDGYYQTTLPAIVFQMFEQNLQVAAQISEDLKTKVLVLCLQQMNSFLSRYKDEAQLYKEEHLRNRQHPHCYVQYMIAIINNCQTFKESIVSLKRKYLKNEVEEGVSPSQPSMDGILDAIAKEGCSGLLEEVFLDLEQHLNELMTKKWLLGSNAVDIICVTVEDYFNDFAKIKKPYKKRMTAEAHRRVVVEYLRAVMQKRISFRSPEERKEGAEKMVREAEQLRFLFRKLASGFGEDVDGYCDTIVAVAEVIKLTDPSLLYLEVSTLVSKYPDIRDDHIGALLAVRGDASRDMKQTIMETLEQGPAQASPSYVPLFKDIVVPSLNVAKLLK [EXOC3]”, the “solubility in G1/S (log2)” value in data set [1] was found to be 0.114. For the same sequence, the melting temperature came out at 49.5 °C in data set [2] (cell cycle stage: G1/S) and 49.6 °C in data set [2] (cell cycle stage: mitosis). Moreover, the values for the thermal stability score in data set [3] (setting [5]) and in data set [3] (cell cycle stage: mitosis) were 0.262 and 0.647, respectively. The “solubility change mitosis (log2)” value in data set [4] is -0.149.
For the sequence “MPPKRNEKYKLPIPFPEGKVLDDMEGNQWVLGKKIGSGGFGLIYLAFPTNKPEKDARHVVKVEYQENGPLFSELKFYQRVAKKDCIKKWIERKQLDYLGIPLFYGSGLTEFKGRSYRFMVMERLGIDLQKISGQNGTFKKSTVLQLGIRMLDVLEYIHENEYVHGDIKAANLLLGYKNPDQVYLADYGLSYRYCPNGNHKQYQENPRKGHNGTIEFTSLDAHKGVALSRRSDVEILGYCMLRWLCGKLPWEQNLKDPVAVQTAKTNLLDELPQSVLKWAPSGSSCCEIAQFLVCAHSLAYDEKPNYQALKKILNPHGIPLGPLDFSTKGQSINVHTPNSQKVDSQKAATKQVNKAHNRLIEKKVHSERSAESCATWKVQKEEKLIGLMNNEAAQESTRRRQKYQESQEPLNEVNSFPQKISYTQFPNSFYEPHQDFTSPDIFKKSRSPSWYKYTSTVSTGITDLESSTGLWPTISQFTLSEETNADVYYYRIIIPVLLMLVFLALFFL [VRK2]”, the “solubility in G1/S (log2)” value in data set [1] was -0.364. The melting temperature in data set [2] (cell cycle stage: G1/S) stood at 51.1 °C; in data set [2] (cell cycle stage: mitosis), 51 °C. The thermal stability score in data set [3] (setting [5]) is 0.552; in data set [3] (cell cycle stage: mitosis) it was -0.127. In addition, in data set [4], the “solubility change mitosis (log2)” value worked out at 0.257.
In the case of “MRAEGLGGLERFCSPGKGRGLRALQPFQVGDLLFSCPAYAYVLTVNERGNHCEYCFTRKEGLSKCGRCKQAFYCNVECQKEDWPMHKLECSPMVVFGENWNPSETVRLTARILAKQKIHPERTPSEKLLAVKEFESHLDKLDNEKKDLIQSDIAALHHFYSKHLGFPDNDSLVVLFAQVNCNGFTIEDEELSHLGSAIFPDVALMNHSCCPNVIVTYKGTLAEVRAVQEIKPGEEVFTSYIDLLYPTEDRNDRLRDSYFFTCECQECTTKDKDKAKVEIRKLSDPPKAEAIRDMVRYARNVIEEFRRAKHYKSPSELLEICELSQEKMSSVFEDSNVYMLHMMYQAMGVCLYMQDWEGALQYGQKIIKPYSKHYPLYSLNVASMWLKLGRLYMGLEHKAAGEKALKKAIAIMEVAHGKDHPYISEIKQEIESH [SMYD2]”, the “solubility in G1/S (log2)” value in data set [1] is -0.0483. The results for the melting temperature in data set [2] (cell cycle stage: G1/S) and in data set [2] (cell cycle stage: mitosis) were 48.9 °C and 49.8 °C, respectively. The thermal stability score worked out at 0.924 in data set [3] (setting [5]) and 1.13 in data set [3] (cell cycle stage: mitosis). Further, the “solubility change mitosis (log2)” value in data set [4] was -0.134.
Consider “MSDVAIVKEGWLHKRGEYIKTWRPRYFLLKNDGTFIGYKERPQDVDQREAPLNNFSVAQCQLMKTERPRPNTFIIRCLQWTTVIERTFHVETPEEREEWTTAIQTVADGLKKQEEEEMDFRSGSPSDNSGAEEMEVSLAKPKHRVTMNEFEYLKLLGKGTFGKVILVKEKATGRYYAMKILKKEVIVAKDEVAHTLTENRVLQNSRHPFLTALKYSFQTHDRLCFVMEYANGGELFFHLSRERVFSEDRARFYGAEIVSALDYLHSEKNVVYRDLKLENLMLDKDGHIKITDFGLCKEGIKDGATMKTFCGTPEYLAPEVLEDNDYGRAVDWWGLGVVMYEMMCGRLPFYNQDHEKLFELILMEEIRFPRTLGPEAKSLLSGLLKKDPKQRLGGGSEDAKEIMQHRFFAGIVWQHVYEKKLSPPFKPQVTSETDTRYFDEEFTAQMITITPPDQDDSMECVDSERRPHFPQFSYSASGTA [AKT1]”, for which, in data set [1], the “solubility in G1/S (log2)” value is -0.0128. In addition, the melting temperature in data set [2] (cell cycle stage: G1/S) turned out to be 50.6 °C; in data set [2] (cell cycle stage: mitosis) it was 49.9 °C. For the same sequence, the values for the thermal stability score in data set [3] (setting [5]) and in data set [3] (cell cycle stage: mitosis) were 1.05 and 0.255, respectively. The “solubility change mitosis (log2)” value in data set [4] is -0.0505.
For the sequence “MVRSGNKAAVVLCMDVGFTMSNSIPGIESPFEQAKKVITMFVQRQVFAENKDEIALVLFGTDGTDNPLSGGDQYQNITVHRHLMLPDFDLLEDIESKIQPGSQQADFLDALIVSMDVIQHETIGKKFEKRHIEIFTDLSSRFSKSQLDIIIHSLKKCDISLQFFLPFSLGKEDGSGDRGDGPFRLGGHGPSFPLKGITEQQKEGLEIVKMVMISLEGEDGLDEIYSFSESLRKLCVFKKIERHSIHWPCRLTIGSNLSIRIAAYKSILQERVKKTWTVVDAKTLKKEDIQKETVYCLNDDDETEVLKEDIIQGFRYGSDIVPFSKVDEEQMKYKSEGKCFSVLGFCKSSQVQRRFFMGNQVLKVFAARDDEAAAVALSSLIHALDDLDMVAIVRYAYDKRANPQVGVAFPHIKHNYECLVYVQLPFMEDLRQYMFSSLKNSKKYAPTEAQLNAVDALIDSMSLAKKDEKTDTLEDLFPTTKIPNPRFQRLFQCLLHRALHPREPLPPIQQHIWNMLNPPAEVTTKSQIPLSKIKTLFPLIEAKKKDQVTAQEIFQDNHEDGPTAKKLKTEQGGAHFSVSSLAEGSVTSVGSVNPAENFRVLVKQKKASFEEASNQLINHIEQFLDTNETPYFMKSIDCIRAFREEAIKFSEEQRFNNFLKALQEKVEIKQLNHFWEIVVQDGITLITKEEASGSSVTAEEAKKFLAPKDKPSGDTAAVFEEGGDVDDLLDMI [XRCC5]”, the “solubility in G1/S (log2)” value in data set [1] worked out at 0.0358. For the same sequence, the melting temperature in data set [2] (cell cycle stage: G1/S) came to 46.7 °C; in data set [2] (cell cycle stage: mitosis), 48.1 °C. In addition, the results for the thermal stability score in data set [3] (setting [5]) and in data set [3] (cell cycle stage: mitosis) were 6.95 and 12.5, respectively. Also, in data set [4], the “solubility change mitosis (log2)” value is -0.096.
